By UniProt entry, the sequences of proteins in these tests, tags left out. Where a name states a change or a piece, a line headed by the entry shows the natural chain unless it says otherwise.
UniProt P47936: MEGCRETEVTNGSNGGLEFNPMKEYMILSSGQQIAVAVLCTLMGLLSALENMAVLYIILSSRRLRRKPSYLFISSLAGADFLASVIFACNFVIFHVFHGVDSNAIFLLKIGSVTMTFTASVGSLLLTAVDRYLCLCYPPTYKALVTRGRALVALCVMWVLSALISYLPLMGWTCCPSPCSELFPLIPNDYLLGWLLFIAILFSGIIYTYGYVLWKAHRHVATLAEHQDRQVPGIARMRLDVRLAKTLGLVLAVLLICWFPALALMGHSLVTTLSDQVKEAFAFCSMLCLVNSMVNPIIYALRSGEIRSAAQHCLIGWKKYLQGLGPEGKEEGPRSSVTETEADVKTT

According to patent US8367714B2, “Cannabinoid receptor targeted agent” (Vanderbilt University, priority 2007, dated 2013):

Molecular target: T1, mouse CB2 receptors (Mus musculus, UniProt P47936)
T1 construct: expressed in transfected cells
Assay: Displacement of [3H]-SR144528 binding to membrane fractions from DBT cells stably expressing mouse CB2 receptors
Details: displacement of [3H]-SR144528, membranes of DBT cells expressing mouse CB2
Method: One NIR dye labeled conjugable SR144528 (NIRmbc94 or SR-NIR) was tested for its ability to displace the binding of [^3H]-SR144528 to membrane fractions from DBT cells stably expressing mouse CB2 receptors.

Substance: SR144528
- Ki: 0.7 nM
